One data set deals with opioid antinociception. Description: NHP antinociception (warm water tail withdrawal procedure). The following applies: for Opioid ED50, Tail Withdrawal: linear regression analysis; for Fig 6B Tail Withdrawal Latency to Nociception: individual NHP; for Fig 6B Tail Withdrawal (% of Baseline): opioid 0.032 mg/kg, individual NHPs.
For data set [1], the system named is opioid response-rate decreasing effects. Description: NHP food-maintained operant responding procedure. The following applies: linear regression analysis.
Data set [2] deals with opioid-induced respiratory depression (OIRD). Description: NHP respiration procedure (whole-body plethysmography, opioid-induced respiratory depression). The following applies: for Opioid ED50, Respiration: linear regression analysis; for ED50 ± SEM: Respiration.
The test system of data set [3] is carfentanil-induced respiratory depression. Description: Reversal of carfentanil-induced respiratory depression in mice (whole-body plethysmography). The following applies: IV naloxone 1 mg/kg or IV CSX-1004 60 mg/kg at 15 min after carfentanil.
For data set [4] the following is noted: human; cited from earlier work.

“And” between values parts separate entries of the source, which are not always exact repeats. Equal values may be shown once. A value given as a limit tells only on which side of the number the result lay.

Here are results for 4 compounds from PMC10698161, “Investigation of monoclonal antibody CSX-1004 for fentanyl overdose” (2023).

Consider `CN1CC[C@]23c4c5ccc(O)c4O[C@H]2[C@@H](O)C=C[C@H]3[C@H]1C5`, for which the “Opioid ED50, Tail Withdrawal” value in the data set with opioid antinociception (Pre-mAb) came out at 0.923 mg/kg; in the data set on opioid antinociception (mAb 10 mg/kg), 1.22 mg/kg; with opioid antinociception (mAb 40 mg/kg) it was 0.982 mg/kg. The “Fig 6B Tail Withdrawal Latency to Nociception” value is 10 s (2×) and 3.455 s and 8.61 s in the data set with opioid antinociception (morphine 1.8 mg/kg, mAb 10 mg/kg); 10 s (2×) and 6.465 s and 9.09 s with opioid antinociception (morphine 1.8 mg/kg, mAb 40 mg/kg).
Consider `COc1ccc2c3c1O[C@H]1C(=O)CC[C@@]4(O)[C@@H](C2)N(C)CC[C@]314`, for which the “Opioid ED50, Response Rate” value is 0.34 mg/kg in data set [1] (Pre-mAb), 0.284 mg/kg in data set [1] (mAb 10 mg/kg) and 0.363 mg/kg in data set [1] (mAb 40 mg/kg). The “Opioid ED50, Tail Withdrawal” value in the data set on opioid antinociception (Pre-mAb) was determined as 0.317 mg/kg; in the data set on opioid antinociception (mAb 10 mg/kg), 0.322 mg/kg; with opioid antinociception (mAb 40 mg/kg) it was 0.389 mg/kg. Moreover, the “Fig 6B Tail Withdrawal (% of Baseline)” value with opioid antinociception (mAb 10 mg/kg (TW)) and in the data set with opioid antinociception (mAb 40 mg/kg (TW)) was 0 % of Baseline in each case. Moreover, in the data set on opioid antinociception (oxycodone 0.56 mg/kg, mAb 40 mg/kg), the “Fig 6B Tail Withdrawal Latency to Nociception” value is 10 s (2×) and 4.97 s and 7.51 s. Further, the “Opioid ED50, Respiration” value is reported as 0.475 mg/kg in data set [2] (Pre-mAb), 0.609 mg/kg in data set [2] (mAb 10 mg/kg) and 0.475 mg/kg in data set [2] (mAb 40 mg/kg). Moreover, the “ED50 ± SEM” value in data set [2] (Pre-mAb) and in data set [2] (after 40 mg/kg CSX-1004) was 0.475 mg/kg each time.
On to `C=CCN1CC[C@]23c4c5ccc(O)c4O[C@H]2C(=O)CC[C@@]3(O)[C@H]1C5`, for which, in data set [3], the “time until respiration began to improve compared to saline-treated animals” value is at most 10 min.
In the case of `CC(=O)Oc1ccc2c3c1O[C@H]1[C@@H](OC(C)=O)C=C[C@H]4[C@@H](C2)N(C)CC[C@@]341`, the “time for which overdoses may not be lethal” value in data set [4] is recorded as “at least 30 min”.
